Measurements as given in the pKa sets of Baltruschat and Czodrowski (2020).

Settings: experimental values compiled from the literature

Compared with `CC([N+](=O)[O-])[N+](=O)[O-]`, `CC(C)C([N+](=O)[O-])[N+](=O)[O-]` is higher in pKa: 5.28 for the first, 6.75 for the second.

Compared with `Cc1nc(N[N+](=O)[O-])n[nH]1`, `Cc1nc([N-][N+](=O)[O-])n[nH]1` is higher in pKa: 4.77 for the first, 11.3 for the second.

`O=C(O)C(O)(c1ccccc1)c1ccccc1` and `O=C(O)C1(O)c2ccccc2-c2ccccc21` are within 0.2 log units of each other in pKa: 3.05 for the first, 2.92 for the second.

First: Nc1ccc(P(=O)(Nc2nccs2)Oc2ccccc2)cc1 (centres undefined)
Second: O=[N+]([O-])c1ccc(P(=O)(Nc2nccs2)Oc2ccccc2)cc1 (centres undefined)
The pKa of the first is higher: 9.7 for the first, 8.9 for the second.

Going from `CCCC[As](=O)(O)O` to `CCCC[As](=O)(O)CCCC`, the pKa rises from 3.01 to 6.65.

First: O=[N+]([O-])c1cc([N+](=O)[O-])c2cn[nH]c2c1O
Second: O=[N+]([O-])c1cc2cn[nH]c2cc1[N+](=O)[O-]
The pKa of the first is higher: 2.5 for the first, -0.73 for the second.

First: NCCF
Second: NCCCl
The pKa of the first is higher: 8.79 for the first, 8.49 for the second.

`CCCCC([N+](=O)[O-])[N+](=O)[O-]` and `CCCCCC([N+](=O)[O-])[N+](=O)[O-]` are within 0.2 log units of each other in pKa: 5.45 for the first, 5.5 for the second.

First: CCN(CC)CC[S-]
Second: CN(C)CC[S-]
The pKa of the first is higher: 11 for the first, 10.8 for the second.

First: CCCC([N+](=O)[O-])[N+](=O)[O-]
Second: CCC([N+](=O)[O-])[N+](=O)[O-]
The pKa of the first is lower: 5.2 for the first, 5.67 for the second.

First: c1ccc(-c2nnn[nH]2)c(-c2nnn[nH]2)c1
Second: c1cc(-c2nnn[nH]2)ccc1-c1nnn[nH]1
The pKa of the first is lower: 2.71 for the first, 3.44 for the second.

Compared with `CCn1nnnc1N[N+](=O)[O-]`, `Cn1nnc(N[N+](=O)[O-])n1` is lower in pKa: 2.02 for the first, 1.7 for the second.

Compared with `CC(C)N(CCO)C(C)C`, `CC(C)[NH+](CCS)C(C)C` is lower in pKa: 10.1 for the first, 8.08 for the second.

`CCOP(=O)(Nc1nccs1)c1ccc(N)cc1` (centres undefined) and `COP(=O)(Nc1nccs1)c1ccc(N)cc1` (centres undefined) are within 0.2 log units of each other in pKa: 9.3 for the first, 9.2 for the second.

First: CC(CC(C)(C)[N+](=O)[O-])[N+](=O)[O-] (centres undefined)
Second: CCC(CC(C)(C)[N+](=O)[O-])[N+](=O)[O-] (centres undefined)
The pKa of the first is lower: 8.95 for the first, 9.73 for the second.

`CCCN[N+](=O)[O-]` and `CCN[N+](=O)[O-]` are within 0.2 log units of each other in pKa: 6.47 for the first, 6.39 for the second.

`CCN(c1nnn[nH]1)[N+](=O)[O-]` and `CN(c1nnn[nH]1)[N+](=O)[O-]` are within 0.2 log units of each other in pKa: 2.86 for the first, 2.88 for the second.

Going from `CN[N+](=O)[O-]` to `O=[N+]([O-])Nc1nnn[nH]1`, the pKa falls from 6.25 to 1.77.

Compared with `CCC[NH+](CCC)CCS`, `CC[NH+](CC)CCS` is lower in pKa: 8.62 for the first, 7.72 for the second.

Going from `O=C(OO)c1ccccc1` to `O=[N+]([O-])Cc1cccc([N+](=O)[O-])c1`, the pKa falls from 7.3 to 6.3.

Compared with `CC(C)CC([N+](=O)[O-])[N+](=O)[O-]`, `N#CCCC([N+](=O)[O-])[N+](=O)[O-]` is lower in pKa: 5.4 for the first, 3.45 for the second.

`COP(=O)(Nc1nccs1)c1ccc([N+](=O)[O-])cc1` (centres undefined) and `CCOP(=O)(Nc1nccs1)c1ccc([N+](=O)[O-])cc1` (centres undefined) are within 0.2 log units of each other in pKa: 8.6 for the first, 8.7 for the second.

Going from `O=[N+]([O-])[N-]c1nnn[nH]1` to `O=[N+]([O-])[N-]c1nc[nH]n1`, the pKa rises from 6.1 to 10.8.

Compared with `C1CN1`, `OC1CN2CCC1CC2` (centres undefined) is higher in pKa: 6.05 for the first, 9.93 for the second.

Compared with `Nc1ccc(P(=O)(Nc2nccs2)OCC(F)(F)F)cc1` (centres undefined), `O=[N+]([O-])Cc1ccc([N+](=O)[O-])cc1` is lower in pKa: 8.7 for the first, 5.89 for the second.

`C[As](C)(C)=O` and `CC[As](=O)(CC)CC` are within 0.2 log units of each other in pKa: 3.75 for the first, 3.71 for the second.

Compared with `CC(C)(CC[N+](=O)[O-])[N+](=O)[O-]`, `CC(C)(C)C([N+](=O)[O-])[N+](=O)[O-]` is higher in pKa: 7.84 for the first, 8.24 for the second.

First: CCCCCCC([N+](=O)[O-])[N+](=O)[O-]
Second: CN(c1nc([N+](=O)[O-])n[nH]1)[N+](=O)[O-]
The pKa of the first is higher: 5.5 for the first, 3.12 for the second.

Going from `O=[N+]([O-])c1cc([N+](=O)[O-])c2nnn(O)c2c1` to `O=[N+]([O-])Nc1nc[nH]n1`, the pKa rises from 1.6 to 3.95.

`C[NH+](C)CCS` showed a pKa of 7.68.
